Legend:
[1] = target: T1, Renin (Homo sapiens, UniProt P00797); experiment: In vitro Inhibitory activity against Renin at 10e-9 (M)
Procedure, shortened: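 Purified human renin, procedure as reported earlier. Results given as percent inhibition at 10^-9 M.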

[2] = target: T1, Renin; experiment: In vitro Inhibitory activity against Renin at 10e-9 (M)
[3] = target: T2, Gastricsin (Homo sapiens) (UniProt P20142); experiment: In vitro Inhibitory activity against human Gastricsin at 10e-5 (M)
T2 sequence (whole entry): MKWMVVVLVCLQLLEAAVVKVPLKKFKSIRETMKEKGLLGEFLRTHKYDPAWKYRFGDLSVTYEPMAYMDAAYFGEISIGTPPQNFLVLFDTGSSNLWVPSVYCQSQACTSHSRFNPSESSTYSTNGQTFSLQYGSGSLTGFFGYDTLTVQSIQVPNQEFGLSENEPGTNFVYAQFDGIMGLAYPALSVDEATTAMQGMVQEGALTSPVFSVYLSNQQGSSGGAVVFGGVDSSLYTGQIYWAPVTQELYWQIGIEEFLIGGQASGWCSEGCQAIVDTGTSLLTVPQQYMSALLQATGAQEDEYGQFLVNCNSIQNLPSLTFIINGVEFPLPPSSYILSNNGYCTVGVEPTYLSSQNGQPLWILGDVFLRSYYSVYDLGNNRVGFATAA
Procedure, shortened: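 Human gastricsin and pepsin isolated from gastric juice by IRC-50 ion exchange with pH elution. Hemoglobin substrate; gastricsin run at pH 3.1, pepsin at pH 2.0. After trichloroacetic acid precipitation, supernatant absorbance read at 280 nm. Results given as percent inhibition at 10^-5 M.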

inhibition [1] [%]	inhibition [2] [%]	inhibition [3] [%]	Structure (SMILES)
37	–	–	CC(C)C[C@H](O)[C@H](O)[C@H](CC1CCCCC1)NC(=O)[C@H](Cc1ccccc1)NC(=O)[C@H](Cc1ccccc1)NC(=O)OC(C)(C)C
–	44	–	CC(C)C[C@H](NC(=O)OC(C)(C)C)C(=O)N[C@@H](Cc1c[nH]cn1)C(=O)N[C@@H](CC1CCCCC1)[C@@H](O)[C@@H](O)CC(C)C
78	–	0	CCOC(=O)N[C@@H](Cc1ccccc1)C(=O)N[C@@H](Cc1c[nH]cn1)C(=O)N[C@@H](CC1CCCCC1)[C@@H](O)[C@@H](O)CC(C)C
15	–	–	CC(C)C[C@H](O)[C@H](O)[C@H](CC1CCCCC1)NC(=O)[C@H](C)NC(=O)[C@H](Cc1ccccc1)NC(=O)OC(C)(C)C

Reference: ChEMBL document CHEMBL1124242, “Renin inhibitors. Dipeptide analogues of angiotensinogen utilizing a dihydroxyethylene transition-state mimic at the scissile bond to impart greater inhibitory potency” (J Med Chem, 1988)
